Experimental data from BindingDB's records for doi:10.1021/jm00107a020 (Pfizer, 1991).

Assays:
[1] = biological target: T1, Aldo-keto reductase family 1 member A1 (Sus scrofa, UniProt P50578); assay: Inhibitory activity was measured against pig kidney aldehyde reductase in the presence of 1 uM compound with 3-pyridine carboxaldehyde as substrates
T1 sequence (P50578 whole entry): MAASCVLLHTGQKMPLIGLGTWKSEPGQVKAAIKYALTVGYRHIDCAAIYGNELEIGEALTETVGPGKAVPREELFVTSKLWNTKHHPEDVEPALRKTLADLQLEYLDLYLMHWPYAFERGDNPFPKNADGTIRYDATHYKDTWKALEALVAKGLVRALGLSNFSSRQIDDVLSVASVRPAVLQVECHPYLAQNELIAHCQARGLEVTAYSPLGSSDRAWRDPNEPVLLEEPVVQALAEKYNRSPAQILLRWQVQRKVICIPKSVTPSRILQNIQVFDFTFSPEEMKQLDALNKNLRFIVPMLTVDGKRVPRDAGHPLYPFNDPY

[2] = biological target: Aldo-keto reductase family 1 member B1 (Rattus norvegicus) (UniProt P07943); assay: Inhibitory activity was measured against rat lens aldose reductase in the presence of 1 uM compound with DL-glyceraldehyde as substrates

**Q.** With `CCOC(=O)C1CN(Cc2ccccc2)C(=O)C1=O` (configuration not stated) as the molecule, how does the IC50 [1] read?
**A.** 35.4 µM

**Q.** What about the IC50 [2] of the same molecule?
**A.** 0.84 µM
